Values of other authors as cited in article PMC9629830.

By UniProt entry, the sequences of proteins in these tests, tags left out. Residues count along the entry.
UniProt P46531, 1754-2555: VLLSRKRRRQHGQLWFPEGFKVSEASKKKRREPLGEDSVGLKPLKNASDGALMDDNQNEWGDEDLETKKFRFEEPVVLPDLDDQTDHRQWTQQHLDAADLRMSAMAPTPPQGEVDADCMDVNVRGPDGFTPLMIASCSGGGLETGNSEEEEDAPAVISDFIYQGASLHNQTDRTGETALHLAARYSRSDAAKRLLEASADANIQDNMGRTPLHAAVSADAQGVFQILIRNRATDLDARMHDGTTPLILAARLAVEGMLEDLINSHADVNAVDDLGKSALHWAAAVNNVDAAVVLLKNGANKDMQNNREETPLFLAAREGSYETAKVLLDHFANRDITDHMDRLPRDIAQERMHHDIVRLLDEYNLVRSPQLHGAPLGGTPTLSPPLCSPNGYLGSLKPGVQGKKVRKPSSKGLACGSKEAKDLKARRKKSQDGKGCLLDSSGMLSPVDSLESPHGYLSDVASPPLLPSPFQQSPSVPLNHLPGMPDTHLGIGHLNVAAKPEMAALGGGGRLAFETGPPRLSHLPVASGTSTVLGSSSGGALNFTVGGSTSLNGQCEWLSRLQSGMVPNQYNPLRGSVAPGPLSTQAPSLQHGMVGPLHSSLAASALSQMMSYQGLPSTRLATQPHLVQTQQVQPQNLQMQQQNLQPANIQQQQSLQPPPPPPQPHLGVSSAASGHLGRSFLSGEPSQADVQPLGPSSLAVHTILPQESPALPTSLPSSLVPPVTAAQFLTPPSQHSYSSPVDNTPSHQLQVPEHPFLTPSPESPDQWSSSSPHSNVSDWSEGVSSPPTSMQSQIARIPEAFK
UniProt Q9NR61, 27-529: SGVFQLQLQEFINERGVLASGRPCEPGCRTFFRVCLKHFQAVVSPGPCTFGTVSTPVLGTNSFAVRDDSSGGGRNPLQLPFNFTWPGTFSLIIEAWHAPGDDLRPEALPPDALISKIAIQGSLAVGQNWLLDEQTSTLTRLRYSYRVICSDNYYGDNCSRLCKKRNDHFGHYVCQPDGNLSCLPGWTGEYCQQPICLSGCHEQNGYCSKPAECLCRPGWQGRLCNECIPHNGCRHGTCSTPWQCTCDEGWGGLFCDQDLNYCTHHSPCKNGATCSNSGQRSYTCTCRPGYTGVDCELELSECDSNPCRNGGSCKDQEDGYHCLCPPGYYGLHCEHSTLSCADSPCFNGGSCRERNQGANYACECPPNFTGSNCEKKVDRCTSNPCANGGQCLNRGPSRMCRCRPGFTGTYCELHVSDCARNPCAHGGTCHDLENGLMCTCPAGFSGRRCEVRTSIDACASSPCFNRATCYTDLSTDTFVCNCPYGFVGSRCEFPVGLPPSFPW

Target: Notch1 (Homo sapiens) (UniProt P46531)

DLL-4 (from UniProt Q9NR61)
Kd: 10.1 µM
